Results from PubChem BioAssay (NCI).
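Five concentrations, 48 hours, 96-well plates. GI50 is the concentration that inhibits growth by half. TGI: total growth inhibition.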

Assays:
Assay in all cases: DTP human tumour cell line panel, 48 h
EKVX NSCLC = test system: EKVX NSCLC
DU-145 prostate = test system: DU-145 prostate
SK-OV-3 ovarian = test system: SK-OV-3 ovarian
SNB-75 CNS = test system: SNB-75 CNS
786-0 renal = test system: 786-0 renal
K-562 leukemia = test system: K-562 leukemia
A549 NSCLC = test system: A549 NSCLC
M14 melanoma = test system: M14 melanoma
MCF7 breast = test system: MCF7 breast
HOP-62 NSCLC = test system: HOP-62 NSCLC
MDA-MB-435 = test system: MDA-MB-435
NCI-H226 lung = test system: NCI-H226 lung
RXF 393 renal = test system: RXF 393 renal
SF-539 CNS = test system: SF-539 CNS
COLO 205 colon = test system: COLO 205 colon
OVCAR-5 ovarian = test system: OVCAR-5 ovarian
MDA-N = test system: MDA-N
SK-MEL-2 melanoma = test system: SK-MEL-2 melanoma
CCRF-CEM leukemia = test system: CCRF-CEM leukemia
SK-MEL-28 melanoma = test system: SK-MEL-28 melanoma
SK-MEL-5 melanoma = test system: SK-MEL-5 melanoma
OVCAR-3 ovarian = test system: OVCAR-3 ovarian
HL-60(TB) leukemia = test system: HL-60(TB) leukemia
SF-295 CNS = test system: SF-295 CNS
KM12 colon = test system: KM12 colon
SW-620 colon = test system: SW-620 colon
SF-268 CNS = test system: SF-268 CNS
OVCAR-4 ovarian = test system: OVCAR-4 ovarian
BT-549 breast = test system: BT-549 breast
UACC-62 melanoma = test system: UACC-62 melanoma
UO-31 renal = test system: UO-31 renal
HOP-92 NSCLC = test system: HOP-92 NSCLC
NCI-H322M lung = test system: NCI-H322M lung
HS 578T breast = test system: HS 578T breast
HCT-15 colon = test system: HCT-15 colon
MOLT-4 leukemia = test system: MOLT-4 leukemia
NCI/ADR-RES ovarian = test system: NCI/ADR-RES ovarian
RPMI-8226 leukemia = test system: RPMI-8226 leukemia
HT29 colon = test system: HT29 colon
HCT-116 colon = test system: HCT-116 colon
SN12C renal = test system: SN12C renal
CAKI-1 renal = test system: CAKI-1 renal
U251 CNS = test system: U251 CNS
ACHN renal = test system: ACHN renal
NCI-H460 lung = test system: NCI-H460 lung
NCI-H522 lung = test system: NCI-H522 lung
A498 renal = test system: A498 renal
NCI-H23 lung = test system: NCI-H23 lung
T-47D breast = test system: T-47D breast
TK-10 renal = test system: TK-10 renal
PC-3 prostate = test system: PC-3 prostate
UACC-257 melanoma = test system: UACC-257 melanoma

Question: For Cc1cccc2c1OP(=O)(N(CCCl)CCCl)OC2C(Cl)(Cl)Cl (centres undefined), which GI50 (EKVX NSCLC) is on record?
Answer: 14.5 µM

Question: And the TGI (EKVX NSCLC)?
Answer: 30.9 µM

Question: What about the GI50 (DU-145 prostate) of the same compound?
Answer: 17.3 µM

Question: And the TGI (DU-145 prostate)?
Answer: 35.1 µM

Question: What about the GI50 (SK-OV-3 ovarian) of the same compound?
Answer: 17.6 µM

Question: And the TGI (SK-OV-3 ovarian)?
Answer: 43.2 µM

Question: And the GI50 (SNB-75 CNS)?
Answer: 13.4 µM

Question: What about the TGI (SNB-75 CNS) of the same compound?
Answer: 29 µM

Question: And the GI50 (786-0 renal)?
Answer: 14.9 µM

Question: What about the TGI (786-0 renal) of the same compound?
Answer: 28.2 µM

Question: What about the GI50 (K-562 leukemia) of the same compound?
Answer: 7.8 µM

Question: And the TGI (K-562 leukemia)?
Answer: > 100 µM

Question: And the GI50 (A549 NSCLC)?
Answer: 10.5 µM

Question: What about the TGI (A549 NSCLC) of the same compound?
Answer: 26.3 µM

Question: And the GI50 (M14 melanoma)?
Answer: 14 µM

Question: What about the TGI (M14 melanoma) of the same compound?
Answer: 27.7 µM

Question: What about the GI50 (MCF7 breast) of the same compound?
Answer: 16.6 µM

Question: What about the TGI (MCF7 breast) of the same compound?
Answer: 30.6 µM

Question: And the GI50 (HOP-62 NSCLC)?
Answer: 15.8 µM

Question: And the TGI (HOP-62 NSCLC)?
Answer: 30.5 µM

Question: What about the GI50 (MDA-MB-435) of the same compound?
Answer: 14.2 µM

Question: What about the TGI (MDA-MB-435) of the same compound?
Answer: 27.5 µM

Question: What about the GI50 (NCI-H226 lung) of the same compound?
Answer: 14.3 µM

Question: What about the TGI (NCI-H226 lung) of the same compound?
Answer: 32 µM

Question: What about the GI50 (RXF 393 renal) of the same compound?
Answer: 12.1 µM

Question: What about the TGI (RXF 393 renal) of the same compound?
Answer: 25.4 µM

Question: What about the GI50 (SF-539 CNS) of the same compound?
Answer: 18 µM

Question: And the TGI (SF-539 CNS)?
Answer: 32.4 µM

Question: What about the GI50 (COLO 205 colon) of the same compound?
Answer: 14.7 µM

Question: What about the TGI (COLO 205 colon) of the same compound?
Answer: 28.3 µM

Question: What about the GI50 (OVCAR-5 ovarian) of the same compound?
Answer: 19 µM

Question: And the TGI (OVCAR-5 ovarian)?
Answer: 34 µM

Question: And the GI50 (MDA-N)?
Answer: 16 µM

Question: What about the TGI (MDA-N) of the same compound?
Answer: 29.9 µM

Question: What about the GI50 (SK-MEL-2 melanoma) of the same compound?
Answer: 17.5 µM

Question: And the TGI (SK-MEL-2 melanoma)?
Answer: 32.4 µM

Question: What about the GI50 (CCRF-CEM leukemia) of the same compound?
Answer: 20.7 µM

Question: And the TGI (CCRF-CEM leukemia)?
Answer: > 100 µM

Question: And the GI50 (SK-MEL-28 melanoma)?
Answer: 18.2 µM

Question: What about the TGI (SK-MEL-28 melanoma) of the same compound?
Answer: 32.7 µM

Question: And the GI50 (SK-MEL-5 melanoma)?
Answer: 11.5 µM

Question: And the TGI (SK-MEL-5 melanoma)?
Answer: 23.9 µM

Question: What about the GI50 (OVCAR-3 ovarian) of the same compound?
Answer: 11.6 µM

Question: What about the TGI (OVCAR-3 ovarian) of the same compound?
Answer: 24.5 µM

Question: What about the GI50 (HL-60(TB) leukemia) of the same compound?
Answer: > 100 µM

Question: What about the TGI (HL-60(TB) leukemia) of the same compound?
Answer: > 100 µM

Question: And the GI50 (SF-295 CNS)?
Answer: 10.6 µM

Question: What about the TGI (SF-295 CNS) of the same compound?
Answer: 23.6 µM

Question: And the GI50 (KM12 colon)?
Answer: 13.1 µM

Question: And the TGI (KM12 colon)?
Answer: 26 µM

Question: And the GI50 (SW-620 colon)?
Answer: 15.3 µM

Question: And the TGI (SW-620 colon)?
Answer: 28.6 µM

Question: What about the GI50 (SF-268 CNS) of the same compound?
Answer: 19 µM

Question: What about the TGI (SF-268 CNS) of the same compound?
Answer: 37.2 µM

Question: What about the GI50 (OVCAR-4 ovarian) of the same compound?
Answer: 16.6 µM

Question: And the TGI (OVCAR-4 ovarian)?
Answer: 50.8 µM

Question: And the GI50 (BT-549 breast)?
Answer: 16.9 µM

Question: What about the TGI (BT-549 breast) of the same compound?
Answer: 30.9 µM

Question: What about the GI50 (UACC-62 melanoma) of the same compound?
Answer: 8.39 µM

Question: What about the TGI (UACC-62 melanoma) of the same compound?
Answer: 21.2 µM

Question: What about the GI50 (UO-31 renal) of the same compound?
Answer: 11.1 µM

Question: What about the TGI (UO-31 renal) of the same compound?
Answer: 23.3 µM

Question: What about the GI50 (HOP-92 NSCLC) of the same compound?
Answer: 11.6 µM

Question: What about the TGI (HOP-92 NSCLC) of the same compound?
Answer: 25.1 µM

Question: What about the GI50 (NCI-H322M lung) of the same compound?
Answer: 18.2 µM

Question: And the TGI (NCI-H322M lung)?
Answer: 34.2 µM

Question: What about the GI50 (HS 578T breast) of the same compound?
Answer: 20.9 µM

Question: What about the TGI (HS 578T breast) of the same compound?
Answer: 74.7 µM

Question: What about the GI50 (HCT-15 colon) of the same compound?
Answer: 13.8 µM

Question: What about the TGI (HCT-15 colon) of the same compound?
Answer: 27.7 µM

Question: And the GI50 (MOLT-4 leukemia)?
Answer: 5.46 µM

Question: And the TGI (MOLT-4 leukemia)?
Answer: > 100 µM

Question: And the GI50 (NCI/ADR-RES ovarian)?
Answer: 12.3 µM

Question: And the TGI (NCI/ADR-RES ovarian)?
Answer: 26.3 µM

Question: And the GI50 (RPMI-8226 leukemia)?
Answer: 4.04 µM

Question: And the TGI (RPMI-8226 leukemia)?
Answer: > 100 µM

Question: What about the GI50 (HT29 colon) of the same compound?
Answer: 13.2 µM

Question: And the TGI (HT29 colon)?
Answer: 26.2 µM

Question: And the GI50 (HCT-116 colon)?
Answer: 11.3 µM

Question: What about the TGI (HCT-116 colon) of the same compound?
Answer: 23.8 µM

Question: And the GI50 (SN12C renal)?
Answer: 16.2 µM

Question: And the TGI (SN12C renal)?
Answer: 30.6 µM

Question: What about the GI50 (CAKI-1 renal) of the same compound?
Answer: 11.1 µM

Question: What about the TGI (CAKI-1 renal) of the same compound?
Answer: 23.8 µM

Question: And the GI50 (U251 CNS)?
Answer: 15.8 µM

Question: And the TGI (U251 CNS)?
Answer: 29.9 µM

Question: What about the GI50 (ACHN renal) of the same compound?
Answer: 15.6 µM

Question: What about the TGI (ACHN renal) of the same compound?
Answer: 37.7 µM

Question: And the GI50 (NCI-H460 lung)?
Answer: 13.7 µM

Question: What about the TGI (NCI-H460 lung) of the same compound?
Answer: 27.7 µM

Question: What about the GI50 (NCI-H522 lung) of the same compound?
Answer: 12.1 µM

Question: What about the TGI (NCI-H522 lung) of the same compound?
Answer: 24.8 µM

Question: What about the GI50 (A498 renal) of the same compound?
Answer: 16.8 µM

Question: And the TGI (A498 renal)?
Answer: 30.7 µM

Question: What about the GI50 (NCI-H23 lung) of the same compound?
Answer: 15.3 µM

Question: What about the TGI (NCI-H23 lung) of the same compound?
Answer: 34.1 µM

Question: And the GI50 (T-47D breast)?
Answer: 14.7 µM

Question: What about the TGI (T-47D breast) of the same compound?
Answer: 31.2 µM

Question: And the GI50 (TK-10 renal)?
Answer: 19.2 µM

Question: And the TGI (TK-10 renal)?
Answer: 38 µM

Question: And the GI50 (PC-3 prostate)?
Answer: 4.45 µM

Question: And the TGI (PC-3 prostate)?
Answer: 18.7 µM

Question: What about the GI50 (UACC-257 melanoma) of the same compound?
Answer: 14.2 µM

Question: What about the TGI (UACC-257 melanoma) of the same compound?
Answer: 28.1 µM
